From ChEMBL document CHEMBL1125868, “Antidopaminergic effects of the stereoisomers of N-[(1-alkyl-2- pyrrolidinyl)methyl]-5-sulfamoylbenzamides and -2,3-dihydrobenzofuran-7-carboxamides” (J Med Chem, 1991)

Sequences of proteins named here, by UniProt entry; tags and fusion partners are left off.
UniProt P61169, whole entry: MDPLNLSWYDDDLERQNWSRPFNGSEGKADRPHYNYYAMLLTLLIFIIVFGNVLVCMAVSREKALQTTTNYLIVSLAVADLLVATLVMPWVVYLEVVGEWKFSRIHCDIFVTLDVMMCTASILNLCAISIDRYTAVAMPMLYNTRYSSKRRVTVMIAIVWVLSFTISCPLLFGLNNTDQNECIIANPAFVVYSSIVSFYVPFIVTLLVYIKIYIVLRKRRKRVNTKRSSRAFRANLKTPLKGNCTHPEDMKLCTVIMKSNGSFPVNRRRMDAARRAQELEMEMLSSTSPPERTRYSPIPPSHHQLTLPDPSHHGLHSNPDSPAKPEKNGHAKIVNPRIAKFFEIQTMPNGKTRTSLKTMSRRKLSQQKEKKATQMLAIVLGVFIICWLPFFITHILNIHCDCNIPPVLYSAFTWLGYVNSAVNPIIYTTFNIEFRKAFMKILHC

Biological target: D(2) dopamine receptor (Rattus norvegicus, UniProt P61169)
Experiment: Binding affinity towards dopamine receptor D2 using as [3H]-spiperone radioligand.
Outline: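 Rat striatal membranes washed in 50 mM Tris-HCl pH 7.7, then resuspended in 50 mM Tris-HCl pH 7.1 with NaCl, KCl, CaCl2, MgCl2, ascorbate and 10 μM pargyline, preincubated 10 min at 37 °C. Incubated with [3H]spiperone (0.2 nM final) for 20 min at 37 °C, then filtered. IC50 read from concentration-inhibition curves.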

Which Ki does the source give for CCCCN1CCC[C@@H]1CNC(=O)c1cc(S(N)(=O)=O)cc2c1O[C@H](C)C2 here?
The Ki was 23 nM.
